Experimental data taken from ChEMBL document CHEMBL5137057, “Small Carbohydrate Derivatives as Potent Antibiofilm Agents” (J Med Chem, 2022).

Amino acid sequences for entries named in this document (tags omitted).
UniProt P08191, whole entry: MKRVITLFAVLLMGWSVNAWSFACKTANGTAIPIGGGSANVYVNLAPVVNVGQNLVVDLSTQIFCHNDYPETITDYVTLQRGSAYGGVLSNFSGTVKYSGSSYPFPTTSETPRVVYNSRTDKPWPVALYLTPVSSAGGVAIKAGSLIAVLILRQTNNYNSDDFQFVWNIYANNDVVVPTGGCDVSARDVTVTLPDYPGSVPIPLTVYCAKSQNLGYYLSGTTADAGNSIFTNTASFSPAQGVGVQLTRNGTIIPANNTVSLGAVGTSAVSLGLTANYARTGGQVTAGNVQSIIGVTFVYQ

Target: Type 1 fimbrin D-mannose specific adhesin (Escherichia coli K-12) (UniProt P08191)
Assay: Relative inhibitory potency, ratio of methyl alpha-D-mannose Kd to compound Kd for binding affinity to C-terminal His-tagged truncated Escherichia coli FimH by SPR analysis
Conditions: K12

Compound `CCCCCCCO[C@H]1O[C@H](CO)[C@@H](O)[C@H](O)[C@@H]1O` has a Ratio of 440.
